Results as given in BindingDB's records for 15454240.

Chains of the proteins cited; added tags and fusions are not shown.
UniProt Q9D6N1, whole entry, looked up: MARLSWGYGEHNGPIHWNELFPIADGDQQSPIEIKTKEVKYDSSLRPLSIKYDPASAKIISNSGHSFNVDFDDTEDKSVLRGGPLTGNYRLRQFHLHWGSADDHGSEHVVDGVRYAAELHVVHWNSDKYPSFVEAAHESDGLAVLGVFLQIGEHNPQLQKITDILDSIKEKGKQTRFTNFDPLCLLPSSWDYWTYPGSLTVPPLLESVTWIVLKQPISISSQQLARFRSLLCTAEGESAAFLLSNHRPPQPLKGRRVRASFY

Biological target: Carbonic anhydrase 13 (Mus musculus, UniProt Q9D6N1)

## [N-]=[N+]=N
  Ki: 4.8 mM
